## Antibody variant affinities, Ab-95 light chain, assay 2

Values reported by Engelhart et al. 2022, doi:10.1038/s41597-022-01779-4 (FLAb copy).

All variants were tested on one target, the spike HR2 peptide PDVDLGDISGINAS (SARS-CoV-2).

The variants keep the heavy chain, the linker and the frameworks of Ab-95 (scFv order VH, the linker GGGGSGGGGSGGGGS, VL).
VH: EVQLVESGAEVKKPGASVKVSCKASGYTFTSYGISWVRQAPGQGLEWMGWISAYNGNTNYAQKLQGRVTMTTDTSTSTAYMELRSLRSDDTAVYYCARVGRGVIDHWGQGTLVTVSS
VL: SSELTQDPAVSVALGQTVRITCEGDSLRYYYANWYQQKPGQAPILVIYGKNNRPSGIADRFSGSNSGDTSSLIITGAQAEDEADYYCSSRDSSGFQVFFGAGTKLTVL

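The parent was found by panning a naive human phage display library on the peptide. Variants in AAYL52 differ from the parent at up to three CDR positions; double and triple changes were sampled at random. In AlphaSeq, yeast of one mating type display the scFv and yeast of the other type display the target. After mating in shaken culture at 30 °C for 16 h, diploids were selected and their barcode pairs sequenced. Read counts were normalised to the haploid input and turned into Kd by a linear fit to BCL2-family pairs of known affinity, for each replicate. Each pool was mated in three replicate cultures.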

The whole VL of each variant is written out. Scale: log10 of Kd in nM, estimated from mating counts; low values are strong binders. A pair that was not seen in that replicate is written "nd"; this usually means weak binding, but a binder can also be missed. As a blank, each scFv also met three strains without target: over library AAYL52, 28% of these pairings were detected, typically at 3.91 and seldom below 2.90. Also given: how often the same scFv was detected with the empty control strains, with their mean in brackets. Parent in this assay: reference entry 2.31, copy in this library 2.25.

| VL | replicates, log10 nM | signal with controls |
|---|---|---|
| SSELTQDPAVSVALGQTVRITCHGDSLRYYYANWYQQKPGQAPILVIYGKNNRNSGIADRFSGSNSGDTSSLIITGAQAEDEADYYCSSRDSSGNQVFFGAGTKLTVL | 2.56 / 2.31 / 2.36 | 0 of 9 |
| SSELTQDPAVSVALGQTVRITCEGDSLRYYYAGWYQQKPGQAPILVIYGKNNRPSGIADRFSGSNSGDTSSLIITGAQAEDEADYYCSSRDSSGFKVFFGAGTKLTVL | nd / nd / nd | 3 of 9 (4.15) |
| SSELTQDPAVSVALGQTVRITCEGDSLRYYYANWYQQKPGQAPILVIYYKNHRPSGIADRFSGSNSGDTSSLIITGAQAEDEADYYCSSRDSSGRQVFFGAGTKLTVL | nd / nd / nd | 1 of 9 (2.76) |
| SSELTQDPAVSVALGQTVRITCEGDSLRCYYANWYQQKPGQAPILVIYGKNNRYSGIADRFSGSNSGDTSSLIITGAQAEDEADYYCSSRDSSGFQVNFGAGTKLTVL | nd / 5.58 / 3.28 | 5 of 9 (4.03) |
| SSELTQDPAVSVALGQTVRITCEGDSLRYYYANWYQQKPGQAPILVIYGRNNRPSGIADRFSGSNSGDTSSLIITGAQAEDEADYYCQSRDSIGFQVFFGAGTKLTVL | 2.13 / 2.27 / 2.19 | 3 of 9 (3.22) |
| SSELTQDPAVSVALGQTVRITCEGDSLRYYYAVWYQQKPGQAPILVIYGKNNRPSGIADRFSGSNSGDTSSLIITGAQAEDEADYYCSSRVSSGFKVFFGAGTKLTVL | nd / nd / 4.33 | 5 of 9 (3.96) |
| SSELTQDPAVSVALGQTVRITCEGDSLRYNYANWYQQKPGQAPILVIYIKNNRPSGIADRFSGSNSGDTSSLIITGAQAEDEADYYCSSRSSSGFQVFFGAGTKLTVL | 3.39 / 4.21 / nd | 3 of 9 (3.32) |
| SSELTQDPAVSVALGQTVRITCEGDTLRYYYANWYQQKPGQAPILVIYGKNWRPSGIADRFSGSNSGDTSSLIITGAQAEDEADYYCSSRDSSGFQSFFGAGTKLTVL | nd / 3.29 / 4.03 | 5 of 9 (3.79) |
| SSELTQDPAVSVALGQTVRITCPGDSLRYYYANWYQQKPGQAPILVIYGKNNRPSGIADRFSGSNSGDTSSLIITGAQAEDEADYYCSSRDKSAFQVFFGAGTKLTVL | nd / nd / 3.25 | 2 of 9 (4.55) |
| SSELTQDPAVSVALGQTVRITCEGDSLRGYYALWYQQKPGQAPILVIYGKNARPSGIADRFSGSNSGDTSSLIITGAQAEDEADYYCSSRDSSGFQVFFGAGTKLTVL | 3.37 / 3.61 / nd | 5 of 9 (3.71) |
| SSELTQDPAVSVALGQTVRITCEGDSLRYYYANWYQQKPGQAPILVIYGKRNRPHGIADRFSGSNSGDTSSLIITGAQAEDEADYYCSSRISSGFQVFFGAGTKLTVL | 3.63 / 4.03 / nd | 2 of 9 (3.55) |
| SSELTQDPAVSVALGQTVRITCEGDSLRYPYANWYQQKPGQAPILVIYGKNLRPSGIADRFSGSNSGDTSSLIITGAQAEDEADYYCSSRDSSGFWVFFGAGTKLTVL | 2.68 / 3.32 / 3.06 | 3 of 9 (3.85) |
| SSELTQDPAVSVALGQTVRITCYGDSLGYYYANWYQQKPGQAPILVIYGKNNRPSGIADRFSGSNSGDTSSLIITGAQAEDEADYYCSSNDSSGFQVFFGAGTKLTVL | 4.31 / nd / 4.37 | 2 of 9 (3.86) |
| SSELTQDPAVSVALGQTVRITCEGDSLRYYYENWYQQKPGQAPILVIYGKNNRPSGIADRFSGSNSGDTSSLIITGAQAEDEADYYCSSRDSSSFQVFFGAGTKLTVL | 3.61 / nd / nd | 1 of 9 (2.65) |
| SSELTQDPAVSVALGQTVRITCEGDSLRWYYANWYQQKPGQAPILVIYGKNNRPSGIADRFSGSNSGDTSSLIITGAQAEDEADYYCSPRDSSWFQVFFGAGTKLTVL | 4.48 / 3.43 / 3.23 | 2 of 9 (3.65) |
| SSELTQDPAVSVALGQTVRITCRGDSLRYYKANWYQQKPGQAPILVIYGKFNRPSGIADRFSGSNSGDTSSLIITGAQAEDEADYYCSSRDSSGFQVFFGAGTKLTVL | 2.89 / 2.37 / 2.56 | 1 of 9 (3.40) |
| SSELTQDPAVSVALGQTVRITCEGYSLRYYYANWYQQKPGQAPILVIYGKNNRPSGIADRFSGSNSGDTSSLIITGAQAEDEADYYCSSRDSSGFQVWFGAGTKLTVL | 2.52 / 2.28 / 1.98 | 3 of 9 (3.74) |
| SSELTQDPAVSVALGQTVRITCEGDSLRYYYANWYQQKPGQAPILVIYGKNNAPSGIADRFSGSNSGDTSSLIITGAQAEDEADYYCSHRTSSGFQVFFGAGTKLTVL | 4.05 / 4.86 / nd | 6 of 9 (3.72) |
| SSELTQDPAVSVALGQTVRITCEKDYLRYYYANWYQQKPGQAPILVIYGKNNRPSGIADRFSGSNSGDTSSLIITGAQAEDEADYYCSSYDSSGFQVFFGAGTKLTVL | nd / nd / nd | 5 of 9 (4.00) |
| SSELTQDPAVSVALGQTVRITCEFDSLRYYYARWYQQKPGQAPILVIYGKNDRPSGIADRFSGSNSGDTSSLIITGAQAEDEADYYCSSRDSSGFQVFFGAGTKLTVL | nd / nd / nd | 2 of 9 (4.29) |
| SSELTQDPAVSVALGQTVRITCEGDSLPYYYANWYQQKPGQAPILVIYKNNNRPSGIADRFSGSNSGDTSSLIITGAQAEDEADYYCSSRDSSGFQVFFGAGTKLTVL | 3.23 / 2.42 / 2.92 | 4 of 9 (3.96) |
| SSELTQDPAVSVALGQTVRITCEGDSQRYYYANWYQQKPGQAPILVIYGKNNRPSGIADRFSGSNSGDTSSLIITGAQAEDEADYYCSSRDSSGFQVFFGAGTKLTVL | 2.73 / 2.32 / 2.95 | 4 of 9 (3.98) |
| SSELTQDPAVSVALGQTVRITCEGDSLRYNYANWYQQKPGQAPILVIYGHNNRPSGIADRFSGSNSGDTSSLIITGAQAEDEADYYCMSRDSSGFQVFFGAGTKLTVL | 0.81 / 0.63 / -0.06 | 5 of 9 (3.99) |
| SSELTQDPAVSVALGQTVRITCEGDSLRYYYGNWYQQKPGQAPILVIYFKNNRPSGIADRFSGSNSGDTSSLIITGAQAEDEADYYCSRRDSSGFQVFFGAGTKLTVL | nd / nd / nd | 3 of 9 (3.18) |
| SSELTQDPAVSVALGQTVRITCEGDSLRYYYANWYQQKPGQAPILVIYEKCNRPSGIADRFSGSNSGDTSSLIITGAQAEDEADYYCSSRDGSGFQVFFGAGTKLTVL | 3.73 / nd / nd | 5 of 9 (3.74) |
| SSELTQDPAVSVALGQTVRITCEGDSLRYYYANWYQQKPGQAPILVIYEKNNRPSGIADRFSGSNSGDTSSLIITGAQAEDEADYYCSSRISSPFQVFFGAGTKLTVL | 3.24 / 3.49 / nd | 2 of 9 (3.77) |

Extract of 3 entries:

VL,"replicates, log10 nM",signal with controls
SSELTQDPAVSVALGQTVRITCPGDSLRYYYANWYQQKPGQAPILVIYGKNNRPSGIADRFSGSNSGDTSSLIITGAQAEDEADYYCSSRDKSAFQVFFGAGTKLTVL,nd / nd / 3.25,2 of 9 (4.55)
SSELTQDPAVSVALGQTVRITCEGDSLRYYYENWYQQKPGQAPILVIYGKNNRPSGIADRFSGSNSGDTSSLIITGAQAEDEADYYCSSRDSSSFQVFFGAGTKLTVL,3.61 / nd / nd,1 of 9 (2.65)
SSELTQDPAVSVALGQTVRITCEGDSLRYYYAGWYQQKPGQAPILVIYGKNNRPSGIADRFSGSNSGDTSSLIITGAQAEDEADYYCSSRDSSGFKVFFGAGTKLTVL,nd / nd / nd,3 of 9 (4.15)